In ChEMBL document CHEMBL1128690, “Design of potent non-thiourea H3-receptor histamine antagonists” (J Med Chem, 1995) one finds Ki data, which are given here for one molecule.

Protein sequences, listed by entry. Tags and fused reporters are not part of them. Lines headed by an entry give the natural chain unless they say otherwise; changes in a name come on top.
UniProt Q9QYN8: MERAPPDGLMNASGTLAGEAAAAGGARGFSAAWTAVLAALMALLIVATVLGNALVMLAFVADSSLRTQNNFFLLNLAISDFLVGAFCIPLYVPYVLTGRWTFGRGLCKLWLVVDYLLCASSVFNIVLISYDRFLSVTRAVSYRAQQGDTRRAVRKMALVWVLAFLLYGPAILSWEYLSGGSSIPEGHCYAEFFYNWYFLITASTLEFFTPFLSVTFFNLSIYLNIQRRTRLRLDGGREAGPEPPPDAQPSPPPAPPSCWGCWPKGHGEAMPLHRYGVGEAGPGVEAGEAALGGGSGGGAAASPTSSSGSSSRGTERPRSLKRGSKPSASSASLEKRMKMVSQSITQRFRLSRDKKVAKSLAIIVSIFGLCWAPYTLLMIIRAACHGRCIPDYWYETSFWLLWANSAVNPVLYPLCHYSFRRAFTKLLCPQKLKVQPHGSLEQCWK

The experiment addresses Histamine H3 receptor (Rattus norvegicus, UniProt Q9QYN8). Kind of experiment: In vitro antagonism of the histamine H3-receptor in the rat cerebral cortex. In kind it is functional, tissue-based.

`Nc1ccc(NCCc2c[nH]cn2)nc1` registered a Ki of 0.186 µM.
